Literature values in US20220331309A1, “PHARMACEUTICAL COMPOSITION FOR TREATING INSOMNIA” (priority 2019, published 2022).

System: CYP3A
Conditions: FDA guidance classification; cited from earlier work

## CNCCC(Oc1ccc(C(F)(F)F)cc1)c1ccccc1 (stereo not shown) [Fluoxetine, fluoxetine]
  Classification of CYP3A inhibiting action of drug used in combination: Weak (increases the AUC of CYP3A in the metabolism of a substrate 1.25-fold or more and less than twofold)
